Target: T1, glutamine synthetase (Escherichia coli, UniProt P0A9C5)
T1 construct: gene glnA
Assay: coupled ADP/NADH oxidation assay with purified enzyme
Type: biochemical

Sequences of proteins named here, by UniProt entry; tags and fusion partners are left off. Residues count along the entry.
UniProt P0A9C5, 2-469: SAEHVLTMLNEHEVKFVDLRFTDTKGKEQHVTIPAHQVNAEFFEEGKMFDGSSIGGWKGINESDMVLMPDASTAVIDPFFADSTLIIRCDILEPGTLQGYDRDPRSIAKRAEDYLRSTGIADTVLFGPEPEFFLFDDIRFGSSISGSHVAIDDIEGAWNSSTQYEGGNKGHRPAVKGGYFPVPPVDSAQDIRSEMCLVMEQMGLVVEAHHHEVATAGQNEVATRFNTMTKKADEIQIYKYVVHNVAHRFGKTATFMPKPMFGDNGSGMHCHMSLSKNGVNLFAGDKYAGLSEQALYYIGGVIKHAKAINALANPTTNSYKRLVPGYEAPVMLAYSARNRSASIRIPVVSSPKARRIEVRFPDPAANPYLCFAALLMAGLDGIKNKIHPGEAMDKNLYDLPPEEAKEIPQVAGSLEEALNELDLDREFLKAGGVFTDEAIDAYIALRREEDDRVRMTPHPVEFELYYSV

Q: With `C[As](=O)(O)CC[C@H](N)C(=O)O` [AST, 2-amino-4-(hydroxymethylarsinoyl)butanoate] as the molecule, how does the Ki read?
A: 300 ± 50 nM

From publication PMC6465285, “Arsinothricin, an arsenic-containing non-proteinogenic amino acid analog of glutamate, is a broad-spectrum antibiotic” (Communications Biology, 2019)
